Measurements: US11707447B1

Experiment: Mouse pharmacokinetic (PK) evaluation of drug metabolism to psilocin

CN(C)CCc1c[nH]c2cccc(OC(=O)OCc3ccccc3)c12 [B(II), reference compound]
detection of administered compound in plasma (in words) (1 mg/kg oral): neither B(II) nor E(VI) were detected in plasma
psilocin levels / exposure, B(II) vs E(VI) (in words) (oral dosing, sampling period 0.25-24 h): higher psilocin levels in B(II)-treated mice
